Target: Bromodomain-containing protein 2 (Homo sapiens, UniProt P25440)
Assay: Displacement of FAM-labeled ZBA248 from BRD2 BD2 (349 to 460 amino acid residues) (unknown origin) expressed in Rosetta2 DE3 cells after 30 mins by fluorescence polarization assay

Protein sequences, listed by entry. Tags and fused reporters are not part of them.
UniProt P25440, whole entry: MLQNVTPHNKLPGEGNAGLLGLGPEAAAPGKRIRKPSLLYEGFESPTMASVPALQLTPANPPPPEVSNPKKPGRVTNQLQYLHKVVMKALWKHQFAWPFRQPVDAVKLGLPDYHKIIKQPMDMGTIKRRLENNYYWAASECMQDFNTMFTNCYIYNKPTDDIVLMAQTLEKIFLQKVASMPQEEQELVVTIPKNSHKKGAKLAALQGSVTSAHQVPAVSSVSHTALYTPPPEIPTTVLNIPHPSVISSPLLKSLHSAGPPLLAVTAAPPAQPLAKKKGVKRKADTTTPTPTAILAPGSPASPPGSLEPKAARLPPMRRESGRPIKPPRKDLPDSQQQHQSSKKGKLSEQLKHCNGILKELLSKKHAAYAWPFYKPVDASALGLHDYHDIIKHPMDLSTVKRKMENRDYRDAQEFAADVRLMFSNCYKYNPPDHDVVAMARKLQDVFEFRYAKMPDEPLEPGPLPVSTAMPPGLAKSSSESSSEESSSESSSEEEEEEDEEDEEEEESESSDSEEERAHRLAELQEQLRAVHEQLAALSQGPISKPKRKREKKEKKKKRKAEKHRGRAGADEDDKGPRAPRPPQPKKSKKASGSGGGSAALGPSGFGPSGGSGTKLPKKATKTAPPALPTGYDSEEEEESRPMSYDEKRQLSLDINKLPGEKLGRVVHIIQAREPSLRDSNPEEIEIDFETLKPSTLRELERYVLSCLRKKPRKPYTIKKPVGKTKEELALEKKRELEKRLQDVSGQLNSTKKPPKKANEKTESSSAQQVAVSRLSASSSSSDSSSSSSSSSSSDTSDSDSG

Question: With `Cc1sc2c(c1C)C(c1ccc(Cl)cc1)=N[C@@H](CC(=O)Nc1ccc(O)cc1)c1nnc(C)n1-2` [BIRABRESIB] as the molecule, how does the Ki read?
Answer: The Ki was 5.4 nM.

— ChEMBL document CHEMBL3580597 (J Med Chem, 2015)
